# The list shows a part of the results, in another mix than the full data. Some of these compounds have results that are not shown, active ones among them. Active and inactive are the calls of the source. Rule as the data show it: active = inhibition above about 26%; inactive = the rest.
# System: Nicotinate-nucleotide adenylyltransferase NadD (Staphylococcus aureus N315)
# Assay: S. aureus NadD enzyme activity blockers – biochemical, colorimetric, uHTS, primary screen (AID 602399)
# Details: purified NadD enzyme, colorimetric absorbance read-out; at 20 µM; active compounds read high
row,Compound,inhibition
1,CN(C)C1(CNC(=O)c2ccc(Br)cc2)CCCCC1,inactive: -4.64%
2,COc1cc(C(=O)NCC2(N(C)C)CCCCC2)c([N+](=O)[O-])cc1OC,inactive: -3.75%
3,COc1cccc(C(=O)NCC2(N3CCCCC3)CCCCC2)c1,inactive: -9.01%
4,COc1ccc(Cl)cc1C(=O)NCC1(N(C)C)CCCCC1,inactive: -6.47%
5,O=C(NCC1(N2CCCCC2)CCCCC1)c1cccc(Cl)c1,inactive: -1.38%
6,O=C(OC1CN2CCC1CC2)C(CO)(c1ccccc1)c1ccccc1 (stereo unspecified),inactive: -4.67%
7,COc1ccc(Br)c(C(=O)NCC2(N3CCCCC3)CCCCC2)c1,inactive: 1.3%
8,C=C(C)C#CC(O)(C(=O)OC1CCN(C)CC1)c1ccccc1 (stereo unspecified),inactive: 0.31%
9,CN(C)c1cccc(C(=O)NCC2(N(C)C)CCCCC2)c1,inactive: -6.69%
10,CC(C)Oc1ccc(C(=O)NCC2(N(C)C)CCCCC2)cc1,inactive: -10.1%
11,O=C(OCCN1CCCC1)C(O)(c1ccccc1)c1ccccc1,inactive: 0.468%
12,O=C(NCC1(N2CCCCC2)CCCCC1)c1cc([N+](=O)[O-])ccc1Cl,inactive: 2.04%
13,CN1[C@@H]2CC[C@H]1CC(OC(=O)C(O)(c1ccccc1)c1ccccc1)C2 (stereo partly specified),inactive: -9.03%
14,CC(C)N1C(=O)CC2(CCN(CCOC(=O)C(O)(c3ccccc3)c3ccccc3)CC2)C1=O,inactive: -1.69%
15,CCN(CC)CC(C)C(C)OC(=O)C(O)(c1ccccc1)c1ccccc1 (stereo unspecified),inactive: 1.83%
16,COc1cc(SC)ccc1C(=O)NCC1(N(C)C)CCCCC1,inactive: -10%
17,Cc1ccc(C(=O)NCC2(N3CCCCC3)CCCCC2)cc1,inactive: -2.76%
18,Cc1ccccc1C(=O)NCC1(N2CCCCC2)CCCCC1,inactive: -5.01%
19,CN(C)C1CCCC1OC(=O)C(O)(c1ccccc1)c1ccccc1 (stereo unspecified),inactive: 2.08%
20,CN(C)c1ccc(C(=O)NCC2(N(C)C)CCCCC2)cc1,inactive: -8.11%
21,C=CCN1CCN(CCOC(=O)C(O)(c2ccccc2)c2ccccc2)CC1,inactive: -3.29%
22,O=C(NCC1(N2CCCCC2)CCCCC1)c1cc(F)c(F)cc1Cl,inactive: -9.67%
23,Cc1cc(C(=O)NCC2(N3CCCCC3)CCCCC2)ccc1[N+](=O)[O-],inactive: -7.77%
24,CCN1CCCC(OC(=O)C2(O)c3ccccc3C=Cc3ccccc32)C1 (stereo unspecified),inactive: -6.61%
25,O=C(NCC1(N2CCCCC2)CCCCC1)c1cccc(Br)c1,inactive: -3.43%
26,COc1ccc(C(=O)NCC2(N(C)C)CCCCC2)cc1,inactive: -0.924%

# — PubChem BioAssay AID602399 (Sanford-Burnham Center for Chemical Genomics, 2012)
